The conditions of the data set: human, in vivo.

The source of these data is paper PMC3931943, “Extraction of tamoxifen and its metabolites from formalin-fixed, paraffin-embedded tissues: an innovative quantitation method using liquid chromatography and tandem mass spectrometry” (Cancer Chemotherapy and Pharmacology, 2014).

Take 4-hydroxy-tamoxifen [4-OH]: the “Detection in FFPE tissue of tumor recurrent patients” value was “not found”.
